Results published in US20260144862A1, “MATERIALS AND METHODS TO TREAT EPSTEIN-BARR VIRUS (EBV) AND EBV-INDUCED DISEASES” (Medizinische Universität Wien, priority 2022, published 2026).

Target: T1, HLA-E (Homo sapiens, UniProt P13747)
T1 construct: expressed in transfected cells; host or cells: mouse lymphoma cell line RMA-S/HLA-E/LFA-3, a gift from Chiara Romagnani, DRFZ Berlin
Assay: HLA-E stabilization by UL40 peptides on HLA-E-expressing RMA-S cells
Type: cell-based
Conditions: HLA-E-expressing RMA-S cells incubated with UL40 peptide
Excerpt: Functionally, the expansion of NKG2C^+ NK cells in response to HCMV infections depends on a highly polymorphic HCMV UL40-encoded peptide in the respective infecting HCMV variant, which upregulates the NKG2C ligand HLA-E on the surface of HCMV-infected cells^52. […] HCMV variants were obtained from all 145 HCMV-seropositive MS patients during an episode of HCMV reactivation between EBV seroconversion and MS diagnosis, as well as from all HCMV seropositive EBNA^high (N=80) and EBNA^low (N=85) controls in any of the serum samples collected from the individuals over time. […] Therefore, we incubated HLA-E-expressing RMA-S cells with each of the 18 UL40 peptides and measured HLA-E expression on the cell surface.

VMAPRTLVL [HCMV UL40 peptide variant]
HLA-E Upregulation: 99.6%
